High-throughput results from PubChem.
Sfp PPTase inh – inhibitors of Bacillus subtilis Sfp phosphopantetheinyl transferase; Q9F4F7; AID 1490; Biochemical Sfp PPTase activity, qHTS; 310,000 tested, 3.5% active; Potency, µM, usual class: inhibitors;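 note: the enzyme is Sfp with the accession as filed and its product quenches rhodamine fluorescence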
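Sfp 15 nM + cpd, 15 min RT; start w/ rhodamine-CoA 5 uM, BHQ-2-YbbR 12.5 uM (final); 50 mM Hepes pH 7.6, 10 mM MgCl2, 0.01% NP-40, 0.01% BSA; read 525/598 nm at 0 and 30 min.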
LMNA splice mod – changes lamin A minigene splicing in HeLa cells; HeLa LMNA splicing GFP/RFP minigene ratio, 48 h; Potency, µM (series often up to 46.1 µM), most hits filed as inhibitors; 200,000 tested, 0.01% active; AID 1487; active = well fitted inhibition curve with a large enough effect in the signal ratio, with a control signal flat, not every such curve was filed as active; inconclusive = small, poorly fitted or top-dose-only effect, or effect the other way, or a change in a side signal; the % refers to the signal ratio
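S3 HeLa cells stably expressing lamin A-EGFP splicing minigene plus DsRed2, 600 cells/well, 48 h compound exposure at 37C. Laser-scanning cytometry; analysed as GFP (500-530 nm)/RFP (575-640 nm) total intensity ratio; 0.5% DMSO vehicle.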
ALDH1A1 block – ALDH1A1 (human) enzyme inhibition. Purified ALDH1A1, NADH fluorescence, propionaldehyde substrate. Potency, µM (highest dose often 75.3 µM), actives largely listed as inhibitors. 220,000 tested, 7.3% active. AID 1030; active = well fitted inhibition curve with a large enough effect, not every such curve was filed as active; inconclusive = small, poorly fitted or top-dose-only effect, or another doubt; inactive = no such curve, though single readings can be large or run the other way
JMJD2E inh – JMJD2E (human) inhibition. Potency, µM (doses to about 57.1 µM), usual class: inhibitors. B2RXH2. 230,000 tested, 1.6% active. AID 2147. JMJD2E catalytic domain, FDH-coupled NADH fluorescence (FDH is formaldehyde dehydrogenase); note: nearly all actives have a fitted effect of over 50% in size
miR-21 reporter – miR-21 reporter, rising signal; Potency, µM (top dose mostly 38.3 µM); 340,000 tested, under 10 active; HeLa miR-21 FLuc reporter, luciferase, 48 h; active = well fitted rising curve with a large enough effect; inconclusive = small, poorly fitted or top-dose-only effect; inactive = no such curve, though single readings can be large or run the other way;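 note: miR-21 action dims this reporter so a rising signal means less miR-21 action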
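HeLa cells stably expressing CMV-driven firefly luciferase with a downstream miR-21 binding sequence, endogenously expressing miR-21, were treated with titrations (up to about 40uM final) for 48 hours at 37 degree Celsius. Luciferase luminescence was read after lysis.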
G9a inh – G9a (human) methyltransferase inhibition; Q96KQ7; G9a H3K9 monomethylation, AlphaScreen, 2 h; Potency, µM (top dose mostly 102 µM), usual class: inhibitors; 350,000 tested, 8.8% active; AID 504332; note: nearly all actives have a fitted effect of over 75% in size
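Enzyme 20 nM + cpd, 15 min RT; add b-H3K9 pep 500 nM / SAM 20 uM; 2 h RT; anti-H3K9me1 Ab 0.5 ug/mL + SA donor / anti-rabbit acceptor beads 20 ug/mL each, 10 min; AlphaScreen read.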
Sfp PPTase conf – Sfp phosphopantetheinyl transferase inhibition, confirmation; shares compounds with Sfp PPTase inh; Sfp PPTase enzymatic assay, qHTS titration; Potency, µM (highest dose often 114 µM), actives largely listed as inhibitors; 380 tested, 79% active; AID 2701
Sfp PPTase gel – Inhibits Bacillus subtilis Sfp phosphopantetheinyl transferase; shares compounds with Sfp PPTase inh; purified Sfp, gel-based phosphopantetheinylation read-out; Potency, µM, actives largely listed as inhibitors; 210 tested, 20% active; AID 2707;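 active = potency below 100 µM; inconclusive = dose-dependent response but potency above 100 µM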;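 note: potency is an IC50 for inhibitors of Sfp transfer activity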
Hits are given with their value; 0 = inactive; ? = inconclusive; - = no result; ! = not active in a repeat; [ ] = remark or other dose. An excerpt weighted towards active compounds, which were near 13% of everything screened. Unless noted, calls come from the whole dose curve; as a rule, active = well fitted curve in the direction sought with a large enough effect; inconclusive = small, poorly fitted or top-dose-only effect, or another doubt; inactive = no such curve, though single readings can be large; an effect the other way counts as inactive or inconclusive.

SMILES	Sfp PPTase inh	LMNA splice mod	ALDH1A1 block	JMJD2E inh	miR-21 reporter	G9a inh	Sfp PPTase conf	Sfp PPTase gel
O=C(CSc1nc2ccccc2c(=O)[nH]1)N1CCOCC1	0	0	0	0	0	0	-	-
Clc1ccccc1-c1nn2c(-c3ccncc3)nnc2s1	16µM	0	11µM	0	0	3.2µM	13µM	-
C=CCN1CCc2nc(N)sc2CC1	56µM!	?	0	?	0	16µM	59µM	?
C=CCN1CCN(Cc2cnc(Cl)s2)CC1	0	0	0	0	0	0[12.7 µM]	-	-
CCN1CCc2nc(N)sc2C1	11µM	0	0	0	0	13µM	12µM	?
O=C(CSc1nnc(CNC(=O)c2cccs2)o1)Nc1ccc(F)cc1F	0	-	-	-	0	0	-	-
CN(Cc1c(C(=O)N2CCCCCCC2)nc2ccc(Cl)cn12)C1CCOC1 (stereo not drawn)	0	-	-	-	0	0	-	-
CC(=O)NNc1cc(C)nc(N)n1	0	-	-	0	0	-	-	-
CS(=O)(=O)N1CCC2(CCN(C(=O)Nc3cccc(F)c3)CC2)CC1	0	-	0	-	-	0[12.7 µM]	-	-
CC(C)c1ccc(Cn2ccc3c4c(N)nc(NC5CC5)nc4ccc32)cc1	5µM	-	0	?	-	-	13µM	?
O=C(CSc1nc2scc(-c3ccco3)c2c(=O)n1-c1ccccc1)NCC1CCCO1 (stereo not drawn)	1.3µM	0	13µM	0	0	8.9µM	42µM	-
NC(=O)CSc1nc2scc(-c3ccco3)c2c(=O)n1-c1ccccc1	6.3µM	0	3.5µM	?	0	?	15µM	-
Cn1c(SCC(=O)NCC2CCCO2)nc2scc(-c3ccccc3)c2c1=O (stereo not drawn)	-	-	-	-	-	0[12.7 µM]	-	-
O=C(CSc1nc2scc(-c3ccco3)c2c(=O)n1-c1ccccc1)N1CCOCC1	?	0	?	0	0	0	-	-
CCCCN1CCC(COC(=O)c2cc(Cl)c(N)c3c2OCCO3)CC1	-	0	0	0	-	?	-	-
CCOC(=O)Cc1nnc(NC(=O)c2ncn[nH]2)s1	14µM	0	0	0	0	?	0	0
CCOC(=O)Cc1nnc(NC(=O)c2ccccc2OCC)s1	0	0	0	0	0	0	-	-
COc1ccc(C(=O)/C=C/C(=O)N(CC(=O)NC2CCCCC2)Cc2cccs2)c(O)c1	3.2µM	?	?	0	0	16µM	3.3µM	2.1µM
COCCN(CC(=O)NC1CCCCC1)C(=O)/C=C/C(=O)c1ccc(OC)cc1O	0	-	0	0	0	-	-	-
NC(=O)c1c(NC(=O)C2CCCO2)sc2c1CCCC2 (stereo not drawn)	1.3µM	0	?	0	0	3.2µM	13µM	-
Cn1nccc1C(=O)Nc1sc2c(c1C(N)=O)CCCC2	0	-	?	?	0	0	-	-
CN1C(C(=O)Nc2ccccn2)=C(O)c2sccc2S1(=O)=O	50µM!	?	0	0	0	?	12µM	0
COC(=O)Oc1nsnc1N1CCOCC1	13µM	0	4µM	?	0	2.8µM	11µM	-
Cc1ccccc1NC(=O)COc1nsnc1N1CCOCC1	0	0	0	0	0	0	-	-
O=C(Nc1ccccn1)C(=O)Nc1ccccn1	0	-	0	0	0	0	-	-
SMILES	Sfp PPTase inh	LMNA splice mod	ALDH1A1 block	JMJD2E inh	miR-21 reporter	G9a inh	Sfp PPTase conf	Sfp PPTase gel
S=C(Nc1ccccn1)c1ccccn1	2.8µM	0	3.5µM	13µM	0	?	53µM	-
CCN1CCN(C(=S)c2ccc(OC)cc2)CC1	11µM	0	0	0	0	11µM	15µM	0
CCN1CCN(C(=S)c2ccc(Cl)cc2)CC1	2.2µM	0	?	0	0	?	13µM	0
O=c1[nH]c(=O)n(C2CC(O)C(CO)O2)cc1F (stereo not drawn)	0	?	0	0	-	-	-	-
COc1ccccc1NC(=O)Nc1ccc(Cl)c(S(=O)(=O)Nc2ccccc2OC)c1	0	?	0	0	0	0	-	-
CCN(CC)c1ccc(NC(=O)c2ccccc2)cc1S(=O)(=O)Nc1ccccc1OC	3.2µM	?	1µM	0	0	1µM	6.6µM	-
Cc1cccc(N2CCN(C(=O)CCc3c(C)nc4c(c3C)c(=O)n(C)c(=O)n4C)CC2)c1C	-	-	-	-	0	0	-	-
